# Results as given in patent US20100016367A1, “BIS-PYRINIDIUM COMPOUNDS” (priority 2006, published 2010).
# Amino acid sequences for entries named in this document (tags omitted). Residues count along the entry.
# UniProt P00592, 23-146 limits assumed: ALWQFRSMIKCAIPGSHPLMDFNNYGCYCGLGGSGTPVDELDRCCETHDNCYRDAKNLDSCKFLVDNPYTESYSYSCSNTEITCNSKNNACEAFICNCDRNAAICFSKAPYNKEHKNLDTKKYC
# Assays:
# A 549 = test: Cytotoxicity; conditions: read-out: Cytotoxicity IC50 A 549; Table 1c
# MDCK = test: Cytotoxicity; conditions: read-out: Cytotoxicity IC50 MDCK; Table 1c
# Human blood erythrocytes [1] = conditions: background statement; cited from earlier work
# ppPLA2 [2] = target: T1, ppPLA2 (Sus scrofa, UniProt P00592); conditions: background statement; cited from earlier work
# Human blood erythrocytes [3] = test: Haemolytic activity assay; type: cell-based
# ppPLA2 [4] = target: T1, ppPLA2; test: Phospholipase inhibition, radiometric assay; conditions: read-out: Concentration required for 50% inhibition of ppPLA2
compound,measurement,setting,value
"1,12-bis[4-(1-pentene)pyiridinium]dodecane dichloride",IC50,A 549,> 350 µM
same,IC50,MDCK,> 350 µM
CCCCCCCCNc1cc[n+](CCCCCCCCCC[n+]2ccc(NCCCCCCCC)cc2)cc1,"Haemolytic activity, in words",Human blood erythrocytes [1],strongly hemolytic
same,"Inhibition of ppPLA2, in words",ppPLA2 [2],strong inhibitor
"1,12-bis[3-Methyl,4-pentyl(2-butyl)pyridinium]dodecane",IC50,A 549,10 µM
same,IC50,MDCK,10 µM
CCCCC(CCCC)c1cc[n+](C)cc1C,Hemolytic activity (in % of positive control which represents 100% lysis),Human blood erythrocytes [3]; 3.5 μM,0%
same,Hemolytic activity (in % of positive control which represents 100% lysis),Human blood erythrocytes [3]; 17.5 μM,5%
same,Hemolytic activity (in % of positive control which represents 100% lysis),Human blood erythrocytes [3]; 44 μM,75%
same,Hemolytic activity (in % of positive control which represents 100% lysis),Human blood erythrocytes [3]; 88 μM,100%
same,Hemolytic activity (in % of positive control which represents 100% lysis),Human blood erythrocytes [3]; 175 μM,100%
same,Hemolytic activity (in % of positive control which represents 100% lysis),Human blood erythrocytes [3]; 350 μM,100%
CCCCCc1cc[n+](CCCCCCCCCCCC[n+]2ccc(CCCCC)cc2)cc1,IC50,A 549,230 µM
CCOC(=O)Cc1cc[n+](C)cc1,Hemolytic activity (in % of positive control which represents 100% lysis),Human blood erythrocytes [3]; 3.5 μM,0%
same,Hemolytic activity (in % of positive control which represents 100% lysis),Human blood erythrocytes [3]; 17.5 μM,0%
same,Hemolytic activity (in % of positive control which represents 100% lysis),Human blood erythrocytes [3]; 44 μM,0%
same,Hemolytic activity (in % of positive control which represents 100% lysis),Human blood erythrocytes [3]; 88 μM,0%
same,Hemolytic activity (in % of positive control which represents 100% lysis),Human blood erythrocytes [3]; 175 μM,0%
same,Hemolytic activity (in % of positive control which represents 100% lysis),Human blood erythrocytes [3]; 350 μM,0%
12-(4-Pentylpyridinium)dodecabromide,IC50,A 549,20 µM
same,IC50,MDCK,40 µM
CCCCCc1cc[n+](C)cc1CCCCC,Hemolytic activity (in % of positive control which represents 100% lysis),Human blood erythrocytes [3]; 3.5 μM,0%
same,Hemolytic activity (in % of positive control which represents 100% lysis),Human blood erythrocytes [3]; 17.5 μM,50%
same,Hemolytic activity (in % of positive control which represents 100% lysis),Human blood erythrocytes [3]; 44 μM,50%
same,Hemolytic activity (in % of positive control which represents 100% lysis),Human blood erythrocytes [3]; 88 μM,100%
same,Hemolytic activity (in % of positive control which represents 100% lysis),Human blood erythrocytes [3]; 175 μM,100%
same,Hemolytic activity (in % of positive control which represents 100% lysis),Human blood erythrocytes [3]; 350 μM,100%
CCCCCc1cc[n+](CCCCCCCCCCCCCC[n+]2ccc(CCCCC)cc2)cc1,IC50,ppPLA2 [4],> 125 µM
CCCCCc1cccc[n+]1CCCCCCCCCCCC[n+]1ccccc1CCCCC,IC50,MDCK,300 µM
"1,12-bis(3,4-Dipentylpyridinium)dodecane",IC50,A 549,40 µM
same,IC50,MDCK,55 µM
